{
  "source": "patent US8623416B2",
  "about": "(priority 2009, dated 2014)",
  "conditions": "injection of 1 mg of suspension at 1 mg/ml",
  "data": [
    {"substance": "squalamine phosphate", "values": [
      {"measurement": "steady state concentration of squalamine to which local tissues are exposed", "result": "≤ 1", "unit": "µg/mL"}
    ]}
  ]
}
